Data published in patent publication US20170218005A1, “COMPOSITIONS AND METHODS RELATED TO GENTAMICIN” (La Jolla Pharmaceutical Company, priority 2016, published 2017).

What was measured:
[1] = tested on: auditory brainstem response (ABR) threshold / hearing; settings: for ototoxicity (summary of the in vivo studies): in vivo studies disclosed herein; for ABR threshold, sound pressure (decibels): male rats, nine i.p. injections over nine days at 39.6, 59.4 or 79.2 mg/kg, ABR on day 25 vs pre-injection, 8, 16 and 32 kHz
[2] = tested on: serum creatinine / kidney function; settings: rats of Examples 1 and 2; 39.6, 59.4 or 79.2 mg/kg i.p.; experimental days 5, 9 and 25

Substance	ototoxicity (summary of the in vivo studies) [1]	ABR threshold, sound pressure (decibels) [1]	serum creatinine levels relative to saline control [2]
C-2 gentamicin	increased ototoxicity relative to native gentamicin	increased significantly	did not significantly affect serum creatinine levels
C-2a gentamicin	no significant ototoxicity	did not significantly increase	did not significantly affect serum creatinine levels
